From US20240189318A1, “THERAPEUTIC REGIMENS OF AN INHIBITOR OF THE ENZYMATIC ACTIVITY OF BRG1 AND BRM” (FOGHORN THERAPEUTICS INC., priority 2021, published 2024)

Columns and labels:
Type in all cases: in vitro ADME
CYP2C8 mRNA = assay: CYP mRNA level in cultured human hepatocytes, CYP2C8; settings: 72 hours, mean ± SD of three donors
CYP2C19 mRNA = assay: CYP mRNA level in cultured human hepatocytes, CYP2C19; settings: 10 nM, 72 hours, mean ± SD of three donors
CYP3A activity = assay: CYP enzyme activity in cultured human hepatocytes, CYP3A4; settings: 0.3 nM, 72 hours, mean ± SD of three donors

Q: With `COC[C@H](NC(=O)c1ccn(S(C)(=O)=O)c1)C(=O)Nc1nc(-c2cccc(N3C[C@@H](C)O[C@@H](C)C3)n2)cs1` [compound of formula (I), N-((S)-1-((4-(6-(cis-2,6-dimethylmorpholino)pyridin-2-yl)thiazol-2-yl)amino)-3-methoxy-1-oxopropan-2-yl)-1-(methylsulfonyl)-1H-pyrrole-3-carboxamide] as the compound, how does the “mRNA Fold Change Relative to the Vehicle Control” value (CYP2C8 mRNA; 0.3 nM) read?
A: Its value is 0.93 ± 0.21.

Q: And the “mRNA Fold Change Relative to the Vehicle Control” value (CYP2C8 mRNA; 10 nM)?
A: Its value is 0.42 ± 0.15.

Q: And the “mRNA Fold Change Relative to the Vehicle Control” value (CYP2C19 mRNA)?
A: The value was 1.04 ± 0.14.

Q: What about the “Enzyme Activity Fold Change Relative to the Vehicle Control” value (CYP3A activity) of the same compound?
A: Its value is 0.93 ± 0.15.
